# scFv variants of Ab-14 (light chain) against a SARS-CoV-2 spike peptide

All variants were tested on one target, the spike HR2 peptide PDVDLGDISGINAS (SARS-CoV-2).

Each scFv is VH, a (GGGGS)3 linker, VL, as in the parent Ab-14, and differs from it in the CDRs of the light chain only.
VH: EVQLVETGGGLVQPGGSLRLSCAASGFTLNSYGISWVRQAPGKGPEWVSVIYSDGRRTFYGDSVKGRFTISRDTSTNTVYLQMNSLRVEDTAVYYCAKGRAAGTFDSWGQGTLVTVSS
VL: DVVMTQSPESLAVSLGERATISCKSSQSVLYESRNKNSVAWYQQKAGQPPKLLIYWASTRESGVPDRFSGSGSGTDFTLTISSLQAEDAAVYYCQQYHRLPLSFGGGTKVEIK

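The starting antibody came from a phage panning campaign against this peptide. The variants were designed computationally from a first round of random CDR variants and then made and measured. Several design methods are mixed in this list. Affinity was read by AlphaSeq, a pooled yeast mating assay with surface-displayed partners. Binding brings cells together so that they mate, and sequencing counts the barcode pairs among the diploids. Each replicate has its own calibration line, from reference interactions of the BCL2 family. Mating was done six times.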

Variants are written as CDR1, CDR2 and CDR3 of the light chain (limits as in the source). Parent: KSSQSVLYESRNKNSVA, WASTRES, QQYHRLPLS.
Variants here have at most six changes.
The Kd shown is the geometric mean over detected replicates; a lower Kd is a better binder.
Where no diploid with the target was found in any replicate, the entry reads "not detected": below detection, most likely a poor binder, though not proof of it.
The list is sorted by this average, lowest first, undetected variants last.

CDR-L1	CDR-L2	CDR-L3	apparent Kd	detected	empty controls
KLDQSTLYESRNKNSVA	GASTRES	QQYHRLPLS	280 pM	6/6	1/18
KLSQSVLYEGRNDNSVA	NASTRMS	QQYHRLPLS	430 pM	6/6	2/18
KLSQSVLYESRNKNSVA	SASTRES	QQYHRLPLM	440 pM	6/6	1/18
KVSQSQLYESRNKNSVA	NASQRES	QDYHRLPLS	450 pM	6/6	0/18
KVDQSVLYESRNKNSVA	NASTRES	QQYHRLPLS	450 pM	6/6	5/18
KVSPSVLAESRNKNSVA	QASTRES	EQYHRLPLS	460 pM	6/6	1/18
KSSQSVPYEDRNKNSVA	NASTRES	QQYHRLPLS	460 pM	6/6	0/18
KLSQSVLYESRMKNAVA	NASTRES	QQYHRLPLS	480 pM	6/6	0/18
KLYQSALYESRNKNSVA	GASTRES	QQYHRLPLS	500 pM	6/6	0/18
KLSQSVLYESRQKNSVA	NASTREV	QQYHRLPLS	560 pM	6/6	1/18
KVSQSYLYESRNKNAVA	EASTRES	QQYHRLPLS	560 pM	6/6	0/18
KLSWSMLYESRNWNSVA	DASTRES	QQYHRLPLS	610 pM	6/6	0/18
KLSQSQGYESRNKNSVA	NASQRES	QQYHRLPLS	620 pM	6/6	0/18
KFSQSWLYESRNKNSVA	GASTRES	QQYHRLPLI	650 pM	6/6	0/18
KLQQSYLYESRNKNSVA	NASYRES	QQYHRLPLS	660 pM	6/6	2/18
KLQQSFLYESRNKNSVA	GASTRES	QQYHRLPLS	670 pM	6/6	0/18
KESQSVWTEWRNKNSVA	DASTRES	QQYHRLPLS	710 pM	6/6	1/18
KLSQSVLYESRNKNSVA	QASTREV	QQYHRLPLS	750 pM	6/6	1/18
KLSQSVLQESRNKNSVA	DASTRES	QQYHRLPLS	780 pM	6/6	0/18
KSSQSVLYESRNKNSVA	DGSTRES	QQYHRLPLS	800 pM	6/6	1/18
HSSQSVPYESRNKNSVA	NASTREE	QQYHRLPLS	810 pM	6/6	0/18
KSSISWLGESRNKNSVA	EASTRES	QQYHRLPLS	850 pM	6/6	0/18
KLSQSMLYESRMKNSVA	NASTRES	QQYHRLPLS	870 pM	6/6	0/18
KVSQSYLYESRNKNSVA	QASTRES	QQYHRLPLS	960 pM	6/6	2/18
KLWMSTLYESRNKNSVA	NASTRES	QQYHRLPLS	1.1 nM	6/6	2/18
KMSQSDLYESRNKNSVA	EASTRES	QQYHRLPLS	1.1 nM	6/6	1/18
KLSQQHLYESRNKNSVA	QASTRES	QQYHRLPLS	1.1 nM	6/6	0/18
KSSQSVQVQSRNKNSVA	DASTRES	QQYHRLPLS	1.2 nM	6/6	0/18
KHSQYVWLESRNKNSVA	NASTRES	QQYHRLPLS	1.3 nM	6/6	0/18
KQSQSVLYESRDKNSVA	DASTRSS	QQYHRLPLS	1.3 nM	6/6	0/18
KYTQSVLYESNNKNSVA	HASTRES	QQYHRLPLS	1.3 nM	6/6	0/18
KSQQSQLYESRNFNSVA	HASTRCD	QQYHRLPLS	1.4 nM	6/6	0/18
KSSQSGAYESRNKNSVA	QASTREC	QEYFRLPLS	1.4 nM	6/6	2/18
KYYPSYLYESRNKNSVA	EASTRES	QQYHRLPLS	1.5 nM	6/6	1/18
KESQSVLFEDRNKNSVA	DASTRES	QQYHRLPLS	1.7 nM	6/6	0/18
KLLQSVLYESRDKNSVA	HASTRED	QQYHRLPLS	1.9 nM	6/6	0/18
KLPQSTLYESRNPNSVA	WASTRED	QQYHRLPLS	1.9 nM	6/6	3/18
KLSQSVLYESRNWNSVA	DASTRES	QQYHRLPLS	2.0 nM	6/6	1/18
KLPQSVPYESRNKNSVA	HASTRES	QQYHRLPLS	2.3 nM	6/6	3/18
KLSQSTLYDSQNKNSVA	WASTRES	QQYWRLPLS	2.3 nM	6/6	2/18
KASQSWLYESRNKNSVA	GASTRES	QQYHRLPLI	2.4 nM	6/6	0/18
KVSQSVLYESRNKNQVA	EASTRES	QQYHRLPLS	2.5 nM	6/6	2/18
KSSQSVLYESENKNSVA	RASTRES	QQYHRLPLS	3.7 nM	6/6	3/18
HLSQSHLYESRNKNSVA	NASTRES	QQYHRLPLS	4.4 nM	6/6	0/18
KLSQSVLYESRNRNSVA	WASIRES	QQYHRLPLS	4.7 nM	6/6	0/18
KCSQSVLQESRNKNSVA	EASQRER	QQYHRLPLS	6.4 nM	6/6	0/18
KSSPSVLYESRNKNSVA	AASTRES	QQYHRLPLG	6.7 nM	6/6	0/18
KFSQSVLYESRVKNSVA	DASTRES	QQYHRLPLS	9.6 nM	6/6	0/18
KSHQSWLNESENKNSVA	WASTRES	QQYHRLPLQ	52 nM	6/6	0/18
SSSQSVLDESTNKNSVA	WAVTRES	QQYHRLPLS	54 nM	6/6	1/18
KLSQSVRYESRNKNSVA	WASTREF	QQYHQLVLF	85 nM	5/6	0/18
KSSQSVLYEDRNKNSVA	WASTRER	QQYHRLPIS	94 nM	6/6	0/18
YMSQSVLNESRNKNSVA	WASTRES	QQYDRLPLS	110 nM	6/6	0/18
KLSQSVIYLSRNKISVA	WASTRES	QQYHRLPLS	160 nM	1/6	0/18
KQRQSVLYESRNKNSVA	WASTRES	QQYHRLPLS	not detected	0/6	0/18
KSSQSVLYDSRNKNSVA	WASTRSS	QQYHRLPLS	not detected	0/6	0/18
KSEQSVLYESRNKNSVA	WDSTRES	QQYHRLPLS	not detected	0/6	0/18
KSSQSVLYQSRNKNSVA	WASTREY	QQYHRLPLS	not detected	0/6	0/18
LSSQSVLYESRNKNSVA	WASTRYS	QEYHRLPLS	not detected	0/6	0/18
KSSQSVLYESRNKNSVA	WASTGES	QQYHRLPLC	not detected	0/6	0/18

For reference, 5 entries of the list once more:

| CDR-L1 | CDR-L2 | CDR-L3 | apparent Kd | detected | empty controls |
|---|---|---|---|---|---|
| KSSQSVPYEDRNKNSVA | NASTRES | QQYHRLPLS | 460 pM | 6/6 | 0/18 |
| LSSQSVLYESRNKNSVA | WASTRYS | QEYHRLPLS | not detected | 0/6 | 0/18 |
| KLPQSVPYESRNKNSVA | HASTRES | QQYHRLPLS | 2.3 nM | 6/6 | 3/18 |
| KSHQSWLNESENKNSVA | WASTRES | QQYHRLPLQ | 52 nM | 6/6 | 0/18 |
| KSSISWLGESRNKNSVA | EASTRES | QQYHRLPLS | 850 pM | 6/6 | 0/18 |

A sequence measured in both rounds can read differently, since the two assays cover different ranges.
In the paper, a design with two or fewer of six values counts as a poor binder.
Of ten entries with the parent sequence, four were seen in most replicates (averages 2.2 nM to 240 nM), three in one and three in none, so single entries are noisy.
Nonspecific signal, from three strains lacking the peptide, appeared in 4% of pairings of all light chain designs, centred on 430 nM (5% of these signals below 38 nM); values are not corrected for it. For each scFv, signals with the empty controls are counted beside the result.

The measurements come from Li et al. 2023 (doi:10.1038/s41467-023-39022-2) through the FLAb antibody collection.